Measurements from ChEMBL document CHEMBL4373696, “Probing the Existence of a Metastable Binding Site at the β2-Adrenergic Receptor with Homobivalent Bitopic Ligands” (J Med Chem, 2019).

Protein sequences, listed by entry. Tags and fused reporters are not part of them.
UniProt P08588, whole entry: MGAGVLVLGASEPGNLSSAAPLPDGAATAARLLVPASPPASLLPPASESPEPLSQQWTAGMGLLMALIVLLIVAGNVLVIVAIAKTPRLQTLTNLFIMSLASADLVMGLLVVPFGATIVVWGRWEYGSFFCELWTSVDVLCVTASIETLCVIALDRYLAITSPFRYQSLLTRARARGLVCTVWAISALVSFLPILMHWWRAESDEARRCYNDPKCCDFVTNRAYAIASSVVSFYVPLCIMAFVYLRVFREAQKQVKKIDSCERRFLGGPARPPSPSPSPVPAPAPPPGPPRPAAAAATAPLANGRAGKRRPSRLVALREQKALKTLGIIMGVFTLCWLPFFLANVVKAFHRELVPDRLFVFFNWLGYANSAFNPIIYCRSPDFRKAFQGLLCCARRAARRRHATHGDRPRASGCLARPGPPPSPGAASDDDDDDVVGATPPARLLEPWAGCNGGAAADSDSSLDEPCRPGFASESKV

How the values were obtained:
[1] = target: T1, Beta-1 adrenergic receptor (Homo sapiens, UniProt P08588); test: Displacement of [3H]DHA from beta1 adrenergic receptor (unknown origin) stably expressed in HEK293 cell membranes measured after 90 mins by scintillation counting analysis
[2] = target: T1, Beta-1 adrenergic receptor; test: Antagonist activity at beta1 adrenergic receptor (unknown origin) stably expressed in HEK293 cell membranes assessed as inhibition of isoproterenol-induced cAMP production preincubated for 15 mins followed by isoproterenol addition and measured after 30 mins by TR-FRET assay; format: cell-based
Outline: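 Membranes from HEK293 cells stably overexpressing β1AR; ligand's blockade of isoproterenol-stimulated cAMP production measured; pIC50 as mean ± SEM from 3-8 independent experiments run in duplicate.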

SMILES | Ki [1] [nM] | IC50 [2] [nM]
C=CCc1ccccc1OCC(O)CNC(C)C (racemic) [ALPRENOLOL] | 2.82 | –
C=CCc1ccccc1OC[C@@H](O)CNC(C)C | – | 5.89
